“And” between values parts separate entries of the source, which are not always exact repeats. Equal entries are not always repeated. Where two headings read alike, the source gives them in different places.
What was measured:
human CRHR2 = molecular target: T1, human CRHR2 (Homo sapiens, UniProt Q13324); assay: cAMP assay, h-CRHR2 transfected SK-N-MC cells; format: cell-based; conditions: for nH (Hill slope) / αmax (maximal asymptote): h-CRHR2; for αmax (maximal asymptote): in %
T1 construct: expressed in transfected cells
T1 sequence (Q13324 1-411): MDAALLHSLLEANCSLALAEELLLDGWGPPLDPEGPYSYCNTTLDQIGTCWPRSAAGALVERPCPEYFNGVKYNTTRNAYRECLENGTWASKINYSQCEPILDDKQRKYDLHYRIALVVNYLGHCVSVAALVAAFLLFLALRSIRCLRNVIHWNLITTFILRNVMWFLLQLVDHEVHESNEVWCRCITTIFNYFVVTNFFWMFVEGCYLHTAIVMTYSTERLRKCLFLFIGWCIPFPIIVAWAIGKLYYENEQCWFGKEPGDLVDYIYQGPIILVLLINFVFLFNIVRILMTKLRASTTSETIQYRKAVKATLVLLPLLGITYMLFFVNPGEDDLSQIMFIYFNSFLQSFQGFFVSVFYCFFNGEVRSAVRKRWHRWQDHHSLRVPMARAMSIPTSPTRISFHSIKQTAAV
Method: (§1) The concentration required for 50% maximum effect (A50) was 0.4 nM.
(§2) Human CRHR1 (accession number X72304) or CRHR2 (accession number U34587) were cloned into pcDNA3.1/Zeo expression vector and stably transfected into SK—N-MC cells by electroporation. Cells were maintained in MEM w/Earl's Salt with 10% FBS, 50 I.U. penicillin, 50 μg/ml streptomycin, 2 mM L-glutamine, 1 mM sodium pyruvate and 0.1 mM non-essential amino acids, 600 μg/ml G418. Cells were grown at 37° C. in 5% CO2
(§3) Cells were plated in 96-well tissue culture dishes (Biocoat from BD Biosciences) overnight at 50,000 cell/well. Cells were washed with PBS then resuspended in DMEM F-12 without phenol red, containing 10 μM isobutylmethylxanthine (IBMX). Cells were incubated with the peptides at concentrations ranging from 1 pM to 10 μM for 60 min at 37° Celsius. […] Forskolin (10 μM), a direct stimulant of adenylate cyclase, was used as positive control. The assays were stopped by the addition of 0.5 M HCl and mixing by orbital rotation for 2 h at 4° Celsius.
To assess the activity of the inventive polypeptide at the CRHR2, an intracellular cAMP measurement test using a Flash plate radioactive assay (Catalog No. Cus56088; Perkin Elmer, Mass., U.S.A.) was employed.
Transfected SK—N-MC cells were plated in 96-well Biocoat tissue culture dishes (BD Biosciences, San Jose, Calif., U.S.A) overnight at 50,000 cell/well. Cells were first washed with PBS and then suspended with DMEM/F-12 without phenol red, containing […]. Suspended cells were transferred into a 96-well flash plate coated with scintillant fluid. Cells were incubated with peptides ranging from 1 pM to 1 μM, for 60 min, at 37° Celsius. Forskolin at 10 μM was used as positive control. After ligand stimulation, cells were lysed by the addition of 0.5M HCl and mixed by orbital rotation for 2 h at 4° Celsius in order to release intracellular cAMP into the media.
Media containing released intracellular cAMP was transferred to a 96-well flash plate coated with scintillant fluid containing an anti-cAMP antibody. In this assay, intracellular cAMP competes with ^125I-labeled cAMP binding to the antibody. To generate a standard curve, cAMP ranging from 2.5 to 250 pmoles/ml was included in the experiment. [^125I]-cAMP was measured on a TopCount scintillation counter (Perkin Elmer, Mass., U.S.A).
(§4) Individual agonist concentration-response curve data were fitted to the Hill equation, see formula below, using GraphPad Prism (Graphpad Software, La Jolla, Calif., U.S.A.), to provide estimates of agonist concentration needed to generate one-half maximal response (A50), and the maximal asymptote (α) and Hill slope (nH) parameters. In this equation, [A] is the agonist concentration and E is the measured effect:
For display purposes the mean fitted parameter estimates were used to generate a single E/[A] curve shown superimposed on the mean experimental data. Potency estimates for agonists, pA50, are expressed as the negative logarithm of the midpoint of each curve and listed with their standard error of measurement (SEM). Logarithm base 10 of the agonist dose ratio (Log DR) values were calculated by subtraction of the test compound pA50 value from the corresponding h-SCP (SEQ ID NO:1) control pA50 value within the same assay batch. The SEM values of the Log DR values are given by the square root of the sum of the squared SEM values of the h-SCP (SEQ ID NO:1) control and test compound pA50 values.
Human and rat peptides (see Table 10) were used on the stimulation of h-CRHR1 or h-CRHR2 transfected SK—N-MC cells in the cAMP flash plate assay. Peptides were incubated for 1 hr at 37° Celsius. Curves were calculated using non-linear regression sigmoidal concentration-response analysis calculation in GraphPad Prism. The so obtained pA50 values are shown in Table 11 in addition to literature values. […]

[1] = tested on: isolated rat aortic rings; assay: Vascular smooth muscle relaxation, isolated rat aortic rings pre-contracted with phenylephrine
Description: The ability of h-SCP (SEQ ID NO:1) to relax vascular smooth muscle was examined in isolated, rat aortic rings pre-contracted with phenylephrine (PE) (FIG. 8). […] The responses caused by h-SCP (SEQ ID NO:1) were inhibited by anti-sauvagine-30 (SEQ ID NO:118).

[2] = tested on: healthy and heart failure subjects; conditions: healthy 5.16 and 20.8 ng/kg/min; heart failure 4.29 and 17.2 ng/kg/min; cited from earlier work
CRHR1 = molecular target: T2, CRHR1 (Homo sapiens, UniProt P34998); assay: cAMP assay, h-CRHR1 transfected SK-N-MC cells; format: cell-based; set-up: expressed in transfected cells; conditions: Table 11; for EC50: h-CRHR1 transfected SK-N-MC cells, 1 hr at 37° Celsius, read-out: pA50 (Experimental) (converted)
T2 sequence (P34998 24-415): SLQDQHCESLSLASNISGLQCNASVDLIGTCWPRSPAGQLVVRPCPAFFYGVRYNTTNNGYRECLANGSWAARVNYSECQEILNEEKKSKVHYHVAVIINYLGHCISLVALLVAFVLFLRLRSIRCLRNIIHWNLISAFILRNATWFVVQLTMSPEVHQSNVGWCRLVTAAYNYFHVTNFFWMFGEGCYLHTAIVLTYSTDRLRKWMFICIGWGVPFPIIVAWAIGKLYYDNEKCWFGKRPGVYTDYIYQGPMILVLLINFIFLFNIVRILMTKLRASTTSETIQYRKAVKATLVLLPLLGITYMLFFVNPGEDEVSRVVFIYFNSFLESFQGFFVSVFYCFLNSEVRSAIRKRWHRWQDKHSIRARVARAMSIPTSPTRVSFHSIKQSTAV
Method: as §1, §2
as §3, with “4° Celsius. […]” for “4° Celsius.”
Media containing released intracellular cAMP was transferred to a 96-well flash plate coated with scintillant fluid containing an anti-cAMP antibody. […] [^125I]-cAMP was measured on a TopCount scintillation counter (Perkin Elmer, Mass., U.S.A).
as §4
For display purposes the mean fitted parameter estimates were used to generate a single E/[A] curve shown superimposed on the mean experimental data. Potency estimates for agonists, pA50, are expressed as the negative logarithm of the midpoint of each curve and listed with their standard error of measurement (SEM). […]

nH (Hill slope) (human CRHR2; Table 11) | αmax (maximal asymptote) (human CRHR2; Table 11) | EC50 (human CRHR2; Table 11, h-CRHR2 transfected SK-N-MC cells, 1 hr at 37° Celsius, read-out: pA50 (Experimental) (converted)) [nM] | Structure (SMILES) | nH (Hill slope) (human CRHR2; Table 11, listed as h-UCN2) | αmax (maximal asymptote) (human CRHR2; Table 11, listed as h-UCN2) | nH (human CRHR2; Table 14) | αmax (human CRHR2; Table 14, % of the maximum response obtained to h-SCP) [%] | EC50 (human CRHR2; Table 14, read-out: pA50 (converted)) [nM] | pA50 of relaxation [1] | effect on LVEF, CO, heart rate and blood pressure [2] | nH (Hill slope) (CRHR1; h-CRHR1) | EC50 (CRHR1) [nM]
 |  |  | CC[C@H](C)[C@H](N)C(=O)N[C@H](C(=O)N[C@@H](CC(C)C)C(=O)N[C@@H](CO)C(=O)N[C@@H](CC(C)C)C(=O)N[C@@H](CC(=O)O)C(=O)N[C@H](C(=O)N1CCC[C@H]1C(=O)N[C@H](C(=O)NCC(=O)N[C@@H](CC(C)C)C(=O)N[C@@H](CC(C)C)C(=O)N[C@@H](CCC(N)=O)C(=O)N[C@H](C(=O)N[C@@H](CC(C)C)C(=O)N[C@@H](CC(C)C)C(=O)N[C@@H](CCC(=O)O)C(=O)N[C@@H](CCC(N)=O)C(=O)N[C@@H](C)C(=O)N[C@@H](CCCNC(=N)N)C(=O)N[C@@H](C)C(=O)N[C@@H](CCCNC(=N)N)C(=O)N[C@@H](C)C(=O)N[C@@H](C)C(=O)N[C@@H](CCCNC(=N)N)C(=O)N[C@@H](CCC(=O)O)C(=O)N[C@@H](CCC(N)=O)C(=O)N[C@@H](C)C(=O)N[C@H](C(=O)N[C@H](C(=O)N[C@@H](CC(N)=O)C(=O)N[C@@H](C)C(=O)N[C@@H](CCCNC(=N)N)C(=O)N[C@H](C(=O)N[C@@H](CC(C)C)C(=O)N[C@@H](C)C(=O)N[C@@H](CCCNC(=N)N)C(=O)N[C@H](C(N)=O)C(C)C)[C@@H](C)CC)[C@@H](C)O)[C@@H](C)O)[C@@H](C)CC)[C@@H](C)CC)C(C)C)C(C)C [SEQ ID NO: 115, IVLSLDVPIGLLQILLEQARARAAREQATTNARILARV-NH2, reference compound] | 0.9 and 0.72 | 114.7 and 128.9 | 1.34 | 116.9 | 0.309 | 7.01±0.13 | increases in LVEF and CO in the subjects that were accompanied by a significant increase in heart rate and decrease in blood pressure | 1.69 | 955
1.02 | 101.8 | 0.55 | CC[C@H](C)[C@H](NC(=O)[C@H](CCC(N)=O)NC(=O)[C@H](C)NC(=O)[C@H](CCSC)NC(=O)[C@H](CC(C)C)NC(=O)[C@H](Cc1c[nH]cn1)NC(=O)[C@H](C)NC(=O)[C@H](CC(N)=O)NC(=O)[C@H](C)NC(=O)[C@H](C)NC(=O)[C@H](C)NC(=O)[C@H](CCC(N)=O)NC(=O)[C@H](C)NC(=O)[C@H](CCCNC(=N)N)NC(=O)[C@H](CC(C)C)NC(=O)[C@H](CC(N)=O)NC(=O)[C@H](CCCCN)NC(=O)[C@H](C)NC(=O)[C@H](CCCCN)NC(=O)[C@H](C)NC(=O)[C@@H](NC(=O)[C@H](CC(N)=O)NC(=O)[C@H](Cc1ccccc1)NC(=O)[C@H](CC(C)C)NC(=O)[C@H](CC(C)C)NC(=O)[C@H](CC(N)=O)NC(=O)[C@H](CCSC)NC(=O)[C@@H](NC(=O)[C@H](CC(N)=O)NC(=O)[C@@H](NC(=O)[C@@H]1CCCN1C(=O)[C@@H](NC(=O)[C@H](CC(=O)O)NC(=O)[C@H](CC(C)C)NC(=O)[C@H](CO)NC(=O)[C@H](CC(C)C)NC(=O)[C@@H](NC(=O)[C@@H](N)Cc1ccccc1)[C@@H](C)O)C(C)C)[C@@H](C)O)[C@@H](C)CC)[C@@H](C)CC)C(N)=O [SEQ ID NO: 116, FTLSLDVPTNIMNLLFNIAKAKNLRAQAAANAHLMAQI-NH2] |  |  |  |  |  |  |  |  | > 10000

Source: patent US20110105397A1, “METHOD FOR TREATING HEART FAILURE WITH STRESSCOPIN-LIKE PEPTIDES” (priority 2009, published 2011)
